# Yeast UUG start-1: yeast start codon fidelity modulation | S. cerevisiae UUG-firefly luciferase reporter, luminescence/redox ratio | activity score, % at 18.7 µM | hit rate 0.13% among 350,000 | AID 602363;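 active means replicate mean at a twofold rise or more, about +100% in these data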;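 further: firefly luciferase made from a UUG start codon reports start codon fidelity; reporter light over untreated wells divided by growth signal over untreated wells; some hits fall short of that in this replicate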
# INS-1E GSIS act: GLuc luminescence reporter in INS-1E cells, primary screen for activators of glucose-dependent secretion of insulin. INS-1E GLuc reporter insulin secretion, 2-3 h. activation, % at 16.6 µM. actives 0.61% (n = 370,000). AID 743287;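 active = lowest replicate activation of at least 40%, so every replicate reaches that level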;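 also: 0% = median of neutral control wells and 100% = median of IBMX positive control wells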
# SR-BI HDL uptake: blocks mouse SR-BI lipid uptake from DiI-HDL. Q61009. ldlA[mSR-BI] CHO cells, DiI-HDL uptake fluorescence, 3 h. inhibition, % at 12.5 µM. actives 0.96% (n = 320,000);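 active = mean replicate inhibition of at least 70% and a set share of replicates each scoring 70 or more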;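 also: 0% = median of neutral control wells and 100% = median of positive control wells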
# SR-BI uptake up: SR-BI HDL lipid transfer activation. CHO ldlA[mSR-BI] cells, DiI-HDL uptake fluorescence, 3 h; 100 = double the neutral-control signal. actives 0.096% (n = 320,000). activation, % at 12.5 µM. AID 504775;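 active = mean replicate activation of at least 60% and every replicate at or above 60%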;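 also: 0% = median plate neutral-control signal and 100% = twice that signal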
#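 Test system: SR-BI-overexpressing, LDLR-lacking CHO cells; Also added: labelled HDL, 10 µg/mL; Measured by: bottom-read cell fluorescence after medium removal, ex 550/em 595 nm; Timing: 3 h uptake period with compound, 37 °C; Buffer or medium: F12, 0.5% BSA, 25 mM HEPES; Doses: single compound concentration, delivered by pin transfer.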
# Yeast UUG start-2: yeast start codon fidelity modulation; shares compounds with Yeast UUG start-1; activation, % at 38 µM; 540 tested, under 10 active; S. cerevisiae UUG-start firefly luciferase, luminescence, 4 h; 100% means double the DMSO signal; AID 652061;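 active = signal increase whose fitted curve reaches an absolute level of 40 at a concentration under 10 µM; inactive = activity opposite to the expected increase, or the rest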
# * = called active by the depositor; i = inactive; . = no result given. Sampled rows, rich in hits. Any-hit rate of the full collection: about 1.3%.
SMILES,Yeast UUG start-1,INS-1E GSIS act,SR-BI HDL uptake,SR-BI uptake up,Yeast UUG start-2
CCOCC(=O)N1CCN(c2ccc([N+](=O)[O-])cc2)CC1,1.2,7.8,-1.4,1.4,-7.2
O=C(Nc1ccccc1)N1CCCCN2[C@H](CO)[C@H](c3ccc(C#Cc4cccnc4)cc3)[C@@H]2C1,-3.8,-17.4,.,.,.
CCN(C(=O)c1cc(Cl)ccc1OC)c1ccccc1C,128.3*,.,0.9,-0.9,3.9
O=C(Nc1ccc(Cl)cc1)N[C@H]1CC[C@H](CCNC(=O)c2ccccc2F)O[C@H]1CO,91.3*,-14.7,.,.,i
O=C(NCC[C@@H]1CC[C@H](NC(=O)c2cnccn2)[C@@H](CO)O1)Nc1ccc(F)cc1,158.6*,-11.8,.,.,i
O=C(NCC[C@H]1CC[C@H](NC(=O)c2cnccn2)[C@H](CO)O1)Nc1ccc(F)cc1,-2.3,1.1,.,.,.
O=C(NCC[C@H]1CC[C@H](NS(=O)(=O)c2cccc(F)c2)[C@H](CO)O1)c1cnccn1,112.9*,1.7,.,.,i
CC(C)NC(=O)Nc1ccc2c(c1)C(=O)N([C@@H](C)CO)C[C@H](C)[C@H](CN(C)Cc1ccc(C(=O)O)cc1)OCCCC[C@@H](C)O2,18.5,3.7,.,.,.
Cc1noc(C)c1NC(=O)Nc1cccc2c1O[C@@H](CN(C)C(=O)NC1CCCCC1)[C@@H](C)CN([C@H](C)CO)C2=O,-9.7,2.6,.,.,.
COCC(=O)Nc1ccc2c(c1)C(=O)N(C)C[C@@H](OC)[C@@H](C)CN(Cc1ccccc1F)[C@@H](C)CO2,180.3*,-14.6,.,.,i
COCC(=O)Nc1ccc2c(c1)OC[C@@H](C)N(C(=O)c1cnccn1)C[C@@H](C)[C@@H](OC)CN(C)C2=O,156.2*,14.1,.,.,i
COCC(=O)Nc1ccc2c(c1)OC[C@H](C)N(C(=O)c1cnccn1)C[C@H](C)[C@H](OC)CN(C)C2=O,17.2,0.4,.,.,.
CO[C@@H]1CN(C)C(=O)c2ccc(NC(=O)c3ccccc3F)cc2OC[C@@H](C)N(C(C)=O)C[C@@H]1C,1.9,7.4,.,.,.
COCC(=O)Nc1ccc2c(c1)OC[C@@H](C)N(C(=O)COC)C[C@@H](C)[C@@H](OC)CN(C)C2=O,196.7*,-7.2,.,.,i
CO[C@@H]1CN(C)C(=O)c2ccc(NC(=O)c3ccccc3F)cc2OC[C@H](C)N(C(C)=O)C[C@@H]1C,123.0*,4.8,.,.,i
CO[C@H]1CN(C)C(=O)c2ccc(NS(=O)(=O)c3ccccc3)cc2OC[C@H](C)N(C(=O)NC(C)C)C[C@H]1C,1.7,4.3,.,.,.
CC(=O)c1cn(CC(=O)NCC2CCCO2)c2ccccc12 (stereo unspecified),1.0,.,-14.7,14.7,.
O=C(Cn1cc(C(=O)C2CC2)c2ccccc21)NCC1CCCO1 (stereo unspecified),8.6,17.5,-0.8,0.8,6.2
O=C(c1cn(CC(=O)N2CCCCC2)c2ccccc12)C1CC1,-15.5,.,7.4,-7.4,3.5
CCOC(=O)C1CCN(C(=O)Cn2cc(C(=O)C3CC3)c3ccccc32)CC1,-9.1,.,-5.2,5.2,10.6
O=C(Cn1cc(C(=O)C2CC2)c2ccccc21)NC1CCCC1,5.9,.,-11.2,11.2,7.9
Cc1noc(C)c1NC(=O)Nc1ccc2c(c1)C(=O)N([C@@H](C)CO)C[C@@H](C)[C@H](CN(C)S(=O)(=O)c1ccc(Cl)cc1)OCCCC[C@@H](C)O2,.,-5.3,.,.,.
C[C@@H]1CCCCO[C@@H](CN(C)C(=O)Nc2ccc3c(c2)OCO3)[C@H](C)CN([C@H](C)CO)C(=O)c2cc(NC(=O)CCC(F)(F)F)ccc2O1,2.2,-9.6,.,.,.
COc1ccc(C/C(C)=N/NC(=O)c2ccc(C)cc2C)cc1,538.7*,-5.3,1.8,-1.8,-2.8
COc1ccc(CC(=O)Oc2ccc(C)cc2C)cc1,-2.1,5.3,-33.5,33.5,.
COc1cccc(Oc2nc3ncn(Cc4ccccc4)c3c(=O)n2C)c1,112.9*,.,-1.1,1.1,12.7
C[C@@H]1CN([C@@H](C)CO)C(=O)c2cc(C3=CCCCC3)cnc2O[C@H]1CN(C)C(=O)C1CCOCC1,1.2,5.0,.,.,.
O=C(CNC(=O)c1cc(=O)[nH]c2ccc(S(=O)(=O)N3CCOCC3)cc12)Nc1ccc(F)c(F)c1,107.8*,-10.6,-8.4,8.4,11.9
COc1ccc(S(=O)(=O)N[C@@H]2C=C[C@H](CC(=O)NCCc3ccccc3)O[C@H]2CO)cc1,-7.2,-9.7,.,.,.

# Single entries from above:
# SR-BI HDL uptake, COc1cccc(Oc2nc3ncn(Cc4ccccc4)c3c(=O)n2C)c1 : -1.1
# Yeast UUG start-1, COc1ccc(S(=O)(=O)N[C@@H]2C=C[C@H](CC(=O)NCCc3ccccc3)O[C@H]2CO)cc1 : -7.2
# INS-1E GSIS act, COCC(=O)Nc1ccc2c(c1)OC[C@@H](C)N(C(=O)COC)C[C@@H](C)[C@@H](OC)CN(C)C2=O : -7.2
# INS-1E GSIS act, Cc1noc(C)c1NC(=O)Nc1ccc2c(c1)C(=O)N([C@@H](C)CO)C[C@@H](C)[C@H](CN(C)S(=O)(=O)c1ccc(Cl)cc1)OCCCC[C@@H](C)O2 : -5.3

# Some of the entries so far, with each value named:
O=C(NCC[C@H]1CC[C@H](NC(=O)c2cnccn2)[C@H](CO)O1)Nc1ccc(F)cc1
- Yeast UUG start-1: -2.3
- INS-1E GSIS act: 1.1
- SR-BI HDL uptake: .
- SR-BI uptake up: .
- Yeast UUG start-2: .

O=C(Nc1ccc(Cl)cc1)N[C@H]1CC[C@H](CCNC(=O)c2ccccc2F)O[C@H]1CO
- Yeast UUG start-1: 91.3*
- INS-1E GSIS act: -14.7
- SR-BI HDL uptake: .
- SR-BI uptake up: .
- Yeast UUG start-2: i

# Source: PubChem BioAssay
